Experimental data as given in patent US9637493B2, “Substituted pyrrolopyrimidines as HDM2 inhibitors” (Merck Sharp & Dohme Corp., priority 2012, dated 2017).

By UniProt entry, the sequences of proteins in these tests, tags left out. Residues count along the entry.
UniProt Q00987, 17-125: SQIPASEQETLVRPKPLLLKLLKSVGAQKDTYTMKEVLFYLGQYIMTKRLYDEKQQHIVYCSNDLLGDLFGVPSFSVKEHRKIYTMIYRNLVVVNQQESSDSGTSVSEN

Biological target: HDM2 (Homo sapiens (Human), UniProt Q00987)
Assay: HDM2 FRET assay (inhibition of p53 peptide binding to HDM2)
Conditions: truncated HDM2 residues 17 to 125, 0.5 nM; FITC labeled 8-mer peptide 3 nM; two hour incubation at room temperature
Protocol: Methods: An HDM2 FRET assay was developed to assess the compounds' inhibitory activity towards binding of p53 protein. […] (containing p53 binding surface, Science (1994) 265, 346-355), with N-terminal His and Thioredoxin tag was generated in pET32a expression vector and expressed in E. coli strain BL21(DE3)Rosetta. Protein was purified using Ni-affinity chromatography, followed by size exclusion chromatography using Superdex 75 26/60 column. […] After two hour incubation at room temperature in a humidified chamber plates were read on EnVision plate reader with the following settings: excitation: UV, […], two emission filters: 520 nm and 495 nm respectively. […] IC50 DETERMINATIONS: Dose-response curves were plotted from the inhibition data, from 10 point serial dilutions of inhibitory compounds. Concentration of compound was plotted against em520/Cem495 ratio signal. To generate IC50 values, the dose-response curves were fitted to a standard sigmoidal curve and IC50 values were derived by nonlinear regression analysis.

Row | Structure (SMILES) | IC50
1 | CC(F)(c1ncccc1F)c1cc2nc(C(=O)O)nc(-c3cncc(Cl)c3)c2n1C[C@H]1CC[C@H](C)CC1 (single isomer, unassigned) [Example 8.4, 4-(5-chloropyridin-3-yl)-6-[(1S or R)-1-fluoro-1-(3-fluoropyridin-2-yl)ethyl]-5-[(trans-4-methylcyclohexyl)methyl]-5H-pyrrolo[3,2-d]pyrimidine-2-carboxylic acid] | < 1 nM
2 | CC(F)(c1ncccc1F)c1cc2nc(C(=O)O)nc(-c3cncc(Cl)c3)c2n1C[C@H]1CC[C@H](C)CC1 (single isomer, unassigned) [Example 8.3, 4-(5-chloropyridin-3-yl)-6-[(1R or S)-1-fluoro-1-(3-fluoropyridin-2-yl)ethyl]-5-[(trans-4-methylcyclohexyl)methyl]-5H-pyrrolo[3,2-d]pyrimidine-2-carboxylic acid] | 8 nM
